# Measured affinities in a library of Ab-14 heavy chain variants

Antigen: PDVDLGDISGINAS, a 14-residue peptide of the SARS-CoV-2 spike HR2 region.

Ab-14 is the parent antibody, in scFv form: VH, then a 15-residue (Gly4Ser)3 linker, then VL. The light chain is unchanged in all variants.
VH: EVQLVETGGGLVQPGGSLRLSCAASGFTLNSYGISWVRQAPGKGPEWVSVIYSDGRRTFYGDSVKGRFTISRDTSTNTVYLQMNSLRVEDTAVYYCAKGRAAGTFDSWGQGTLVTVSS
VL: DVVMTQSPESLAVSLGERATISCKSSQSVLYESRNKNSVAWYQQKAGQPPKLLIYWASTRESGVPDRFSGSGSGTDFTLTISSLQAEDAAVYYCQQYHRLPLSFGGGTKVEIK

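The parent was found by panning a naive human phage display library on the peptide. Variants in AAYL49 differ from the parent at up to three CDR positions; double and triple changes were sampled at random. Affinity was read by AlphaSeq, a pooled yeast mating assay with surface-displayed partners. The frequency of each diploid, read from paired DNA barcodes, reflects how well the two displayed proteins bind. The ratio of observed to expected reads was calibrated, replicate by replicate, on BCL2-family standards whose Kd was known from biolayer interferometry. Each pool was mated in three replicate cultures.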

Changes read parent residue, position, new residue, counted from the first residue of the VH shown.
This list gathers variants with a substitution at D106 (VH, numbered from residue 1).
Affinities are written as log10 Kd with Kd in nM; a lower number is a better binder.
An entry "nd" has no value in the source: the pair was not observed among the diploids in that replicate. This suggests poor binding but is not conclusive.
Parent in this assay: reference entry 0.65, copy in this library 4.11 (one replicate of three).
As a blank, each scFv also met three strains without target: over library AAYL49, 15% of these pairings were detected, typically at 4.06 and seldom below 2.83. The control count says in how many pairings with the empty strains this scFv gave a signal.

V64D/K65Q/D106K: 3.90, nd, nd (controls 4 of 9).
I34D/K65V/D106S: 5.20, 4.38, nd (controls 6 of 9).
D62R/K65R/D106Y: 3.07, 2.91, 2.83 (controls 2 of 9).
L29D/R57E/D106A: nd, nd, nd (controls 3 of 9).
D54S/T104F/D106W: 5.87, nd, nd (controls 2 of 9).
I51R/T58Q/D106P: nd, nd, nd (controls 0 of 9).
D54E/R56V/D106A: nd, nd, 5.06 (controls 3 of 9).
S63A/T104C/D106S: nd, nd, nd (controls 0 of 9).
N30I/T58F/D106S: nd, nd, nd (controls 1 of 9).
S63I/R100L/D106W: nd, nd, nd (controls 0 of 9).
S35M/F105Q/D106Y: nd, nd, nd (controls 1 of 9).
I34E/R100S/D106A: nd, 5.07, nd (controls 1 of 9).
Y52F/G103W/D106W: 1.98, 1.82, 1.94 (controls 6 of 9).
V50K/I51N/D106L: nd, nd, 5.81 (controls 4 of 9).
G103L/D106K: 5.58, nd, nd (controls 0 of 9).
I34H/D106H/S107Q: nd, nd, nd (controls 1 of 9).
L29Y/N30F/D106Y: nd, 3.19, nd (controls 2 of 9).
G55H/S63V/D106W: nd, nd, 5.29 (controls 3 of 9).
F59C/D106P: 3.49, nd, nd (controls 0 of 9).
T58Y/G61S/D106A: 4.35, 4.74, nd (controls 9 of 9).
S53W/D106K: nd, nd, nd (controls 0 of 9).
G26F/T28A/D106P: nd, nd, 3.88 (controls 0 of 9).
G33P/V50N/D106G: nd, nd, nd (controls 2 of 9).
T58L/G61I/D106F: nd, nd, nd (controls 1 of 9).
F59H/G61W/D106Y: nd, nd, nd (controls 0 of 9).
L29R/R56M/D106P: nd, nd, nd (controls 0 of 9).
Y52S/D62S/D106Q: 5.92, nd, nd (controls 3 of 9).
R57L/F105H/D106L: nd, nd, 4.19 (controls 1 of 9).
F59M/R100A/D106A: 4.21, 4.04, 4.94 (controls 9 of 9).
I34Y/G55C/D106V: nd, nd, nd (controls 0 of 9).
S35H/D62S/D106R: nd, 3.69, 5.75 (controls 3 of 9).
D62L/D106C: 2.94, 2.50, 3.56 (controls 2 of 9).
R100Y/G103P/D106F: nd, nd, nd (controls 1 of 9).
G33C/R100L/D106R: nd, nd, nd (controls 1 of 9).
R57S/F59D/D106I: nd, 3.45, nd (controls 1 of 9).
I51N/G103H/D106Q: 4.28, 3.27, nd (controls 2 of 9).
Y52S/A101G/D106F: 5.96, nd, 4.78 (controls 1 of 9).
R57A/G103Y/D106L: nd, nd, nd (controls 1 of 9).
V50Q/D54R/D106F: nd, nd, nd (controls 1 of 9).
L29N/Y32K/D106W: nd, nd, nd (controls 0 of 9).
F59A/F105L/D106E: nd, nd, 5.84 (controls 4 of 9).
V50D/Y60P/D106Q: nd, nd, nd (controls 0 of 9).
G61H/D106A: nd, 2.53, nd (controls 0 of 9).
G33E/D106F: 3.04, nd, 3.14 (controls 0 of 9).
F27H/R100D/D106R: nd, nd, nd (controls 2 of 9).
R100K/T104Y/D106I: 1.20, 0.98, 1.30 (controls 0 of 9).

The last 6 entries again:

F59A/F105L/D106E: nd, nd, 5.84 (controls 4 of 9).
V50D/Y60P/D106Q: nd, nd, nd (controls 0 of 9).
G61H/D106A: nd, 2.53, nd (controls 0 of 9).
G33E/D106F: 3.04, nd, 3.14 (controls 0 of 9).
F27H/R100D/D106R: nd, nd, nd (controls 2 of 9).
R100K/T104Y/D106I: 1.20, 0.98, 1.30 (controls 0 of 9).

Source: Engelhart et al. 2022 (doi:10.1038/s41597-022-01779-4), MIT Lincoln Laboratory and A-Alpha Bio; data file from the FLAb repository.